Measurements taken from publication doi:10.1101/2025.02.18.638599v1 (biorxiv, 2025).

Molecular target: T1, AcrB (Escherichia coli, UniProt P31224)
T1 sequence (P31224 1-1049): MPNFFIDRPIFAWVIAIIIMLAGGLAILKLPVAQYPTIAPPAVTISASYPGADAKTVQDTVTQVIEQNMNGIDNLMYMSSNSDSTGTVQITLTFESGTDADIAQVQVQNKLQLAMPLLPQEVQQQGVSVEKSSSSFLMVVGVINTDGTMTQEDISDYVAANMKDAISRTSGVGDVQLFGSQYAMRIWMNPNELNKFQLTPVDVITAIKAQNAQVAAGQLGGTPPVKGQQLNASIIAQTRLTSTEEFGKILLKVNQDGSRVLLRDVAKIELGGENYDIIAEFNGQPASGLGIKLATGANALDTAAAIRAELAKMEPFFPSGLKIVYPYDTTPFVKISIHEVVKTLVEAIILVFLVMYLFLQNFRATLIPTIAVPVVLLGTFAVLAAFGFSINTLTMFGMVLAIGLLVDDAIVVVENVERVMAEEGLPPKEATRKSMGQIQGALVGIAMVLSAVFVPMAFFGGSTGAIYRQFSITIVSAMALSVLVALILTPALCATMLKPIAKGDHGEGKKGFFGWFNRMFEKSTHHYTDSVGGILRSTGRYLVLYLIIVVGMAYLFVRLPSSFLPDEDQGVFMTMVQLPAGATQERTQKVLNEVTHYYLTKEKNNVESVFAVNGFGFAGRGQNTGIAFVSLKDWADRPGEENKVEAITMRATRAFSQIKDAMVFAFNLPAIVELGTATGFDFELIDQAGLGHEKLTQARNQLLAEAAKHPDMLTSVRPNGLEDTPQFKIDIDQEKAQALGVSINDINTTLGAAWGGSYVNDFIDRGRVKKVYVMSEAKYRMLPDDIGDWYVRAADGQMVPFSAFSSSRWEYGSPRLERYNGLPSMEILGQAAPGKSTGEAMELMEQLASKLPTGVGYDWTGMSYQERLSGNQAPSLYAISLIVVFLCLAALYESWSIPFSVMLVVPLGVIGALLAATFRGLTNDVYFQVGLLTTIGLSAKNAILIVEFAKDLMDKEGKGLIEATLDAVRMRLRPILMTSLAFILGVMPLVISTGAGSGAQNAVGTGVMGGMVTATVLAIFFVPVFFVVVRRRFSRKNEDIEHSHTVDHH
Conditions: 20 nM AcrB, room temperature; low affinity

KD: 1.5 [95% CI: 0.80; 2.9] mM
SMILES: COc1c(N)ccc2c1CCCC(N1CCN(CCO)CC1)C2 (stereo not shown) [LP-115]
